Values of other authors as cited in patent US4859707A, “Sulfur-substituted phenylacetamides” (Key Pharmaceuticals, Inc., priority 1983, dated 1989).

Conditions: humans and most other species studied; cited from earlier work

## CCN(CC)CC(=O)Nc1c(C)cccc1C [lidocaine, reference compound]
  Major pathway of biotransformation: N-dealkylation followed by secondary oxidation, conjugation, and hydrolysis
